Laboratory results published in patent US20250161419A1, “SERPIN PEPTIDES AND METHODS OF USING THE SAME” (SERPIN PHARMA, LLC, priority 2022, published 2025).

Assays:
[1] = test system: TLR4; assay: Immunoblot of injured sciatic nerve two days after PNL, TLR4; format: in vivo, mouse; conditions: vehicle greater than 2-fold increase
Method: Neuropathic pain model: Mice (n=30) were randomly assigned to two different groups: SP163M (2 μg/g; s.c. 100 μl) and vehicle (H20 s.c. 100 μl). Mice were treated 1 h prior to partial nerve ligation (PNL) and then daily at least 1 h prior to behavior testing for 2 weeks. PNL studies were performed as previously disclosed^59 and adapted for mice.^57 Male mice were anesthetized with 3% isoflurane (Vetone, USA) in 1.5 L/min oxygen (Praxair, USA) and maintained with 2.5% isoflurane. An incision was made along the long axis of the femur. […] Filaments were presented in a consecutive fashion either ascending or descending using the up-down method as previously disclosed^60 and modified for mice.^57,61 The filament that caused paw withdrawal 50% of the time (the 50% PWT) was determined. […]
Immunoblots of sciatic nerve: Sciatic nerves were harvested 2 days after PNL to identify early molecular and cellular changes. […] Nerves were lysed in RIPA buffer and equal amounts of protein (20 μg) from nerves lysates, as determined by BCA Protein Assay (Bio-Rad, Hercules, CA, USA), were subjected to 10% SDS-PAGE and electro-transferred to nitrocellulose membranes. […] Primary antibodies were detected with HRP-conjugated species-specific secondary antibodies (Cell Signaling Technology, Danvers, MA, USA; cat #7076S or 4S; 1:5000). […]

[2] = test system: HaCat cells; assay: CellTiter-Glo cell viability of Poly IC induced HaCat cells; format: cell-based, human; conditions: Poly IC 50 μg/ml 24 hours, SP163M 100 μg/ml, p=0.0068 vs vehicle
Method: Cells were pretreated with either vehicle or SP163M (100 μg/ml). TSLP was measured in the supernatant via ELISA (p=0.0045 vs. vehicle treated Poly IC induced cells). FIG. 10B: HaCat cells treated as in FIG. 10A were analyzed via the CellTiter-Glo® Luminescent Cell Viability Assay by Promega. The percent change from untreated (no Poly IC) cells were compared between SP163M vs. vehicle treated poly IC induced control (p=0.0068). FIG. 10C: HaCat cells were insulted with TNFα and immunoblotted for phospho-IkBa (Ser32). GAPDH served as a loading control and signal normalization.
In this model of dermal inflammation, SP163M decreased a key cytokine (TSLP) that controls allergic responses, and protected cells from death.

SMILES: CCCC[C@H](NC(=O)[C@H](CC(C)C)NC(=O)[C@H](Cc1ccccc1)NC(=O)[C@@H](NC(=O)[C@H](Cc1ccccc1)NC(=O)[C@@H]1CCCN1C(=O)[C@H](CCCCN)NC(=O)[C@H](CC(N)=O)NC(=O)[C@H](Cc1ccccc1)NC(=O)[C@H](CCCCN)NC(=O)[C@@H](NC(C)=O)C(C)C)C(C)C)C(=O)N[C@H](C(=O)N[C@@H](CCC(=O)O)C(=O)N[C@@H](CCC(N)=O)C(=O)N[C@@H](CC(N)=O)C(=O)N[C@H](C(=O)N[C@@H](CCCCN)C(N)=O)[C@@H](C)O)[C@@H](C)CC [SP163M, Ac-VKFNKPFVFLNIeIEQNTK-NH2]
- TLR4 in injured sciatic nerve (densitometric analysis) [1]: completely blocked the upregulation of TLR4
- cell viability [2]: increase in cell viability
